Measured values taken from patent US20120028837A1, “RAPID SCREEN FOR REPRODUCTIVE TOXICANTS” (PRESIDENT AND FELLOWS OF HARVARD COLLEGE, priority 2010, published 2012).

Experiments:
[1] = tested on: C. elegans diakinesis oocytes; experiment: Diakinesis oocyte analysis (chromosome condensation, SYP-1, AIR-2, pH3); settings: 1 mM E2; 0.15 mM 4-HT
Source text: Proper processing of recombination events is coupled with the formation of mature bivalents during the diakinesis stage such that in mutants where recombination intermediate processing is impaired, bivalent maturation is delayed.
Associated with the changes in chromatin morphology, the SC is disassembled during late diakinesis in a tightly controlled fashion. Accordingly, SC components, such as SYP-1, are detectable on the short arms of the bivalent in the −3 oocyte but are essentially absent from the bivalents of −2 and −1 oocytes. Thus, whether a delay in chromosome remodeling could correlate with an incomplete disassembly of SC components in late diakinesis was examined.
Accurate chromosome segregation at meiosis I is characterized by the carefully orchestrated loss of cohesion between homologs coupled with retention of cohesion between sister chromatids. […] Phospho histone H3 (pH3) is a canonical substrate for the activity of AIR-2 [59] and accordingly, although it accumulates in the −3 to −1 oocytes, it is only detected on the short arms of the bivalent in the −1 oocyte in the presence of AIR-2 [56, 57].
BPA bears endocrine disrupting activity in many developmental contexts including gonadal, brain and mammary gland development. […] Similarly to the experiments described above, the size of the mitotic zone was quantified as well as condensation defects at diakinesis. […]

[2] = Maximum concentration dissolvable in medium; type: physicochemical; settings: plate medium
Source text: BPA bears endocrine disrupting activity in many developmental contexts including gonadal, brain and mammary gland development. BPA has affinity for multiple members of the estrogen receptors family, in particular BPA binds to the human estrogen receptor alpha (ERα) and ERβ as well as estrogen-related receptor gamma (ERR-γ) and in C. elegans with nuclear hormone receptor NHR-14 which also binds estrogen. […] Two hallmarks of exposure to BPA were examined, the decrease in the size of the proliferative zone and the condensation defects observed at diakinesis, as they are both highly penetrant and consistent phenotypes. […] Similarly to the experiments described above, the size of the mitotic zone was quantified as well as condensation defects at diakinesis.
Growing Conditions and Drug Exposures. Worms were cultured according to [23] at 20° C. on NGM plates without cholesterol. […] Exposure was carried from embryogenesis to adulthood by plating sodium hypochloride treated eggs onto drug and control plates and incubated at 20° C. for four days.

4-hydroxy-tamoxifen [4-HT]
bivalent maturation / condensation defects at diakinesis [1]: moderate condensation defects | maximum concentration dissolvable in medium [2]: 0.15 mM
